US10086082B2, “Plant steroids and uses thereof” (DAVIDSON LOPEZ LLC, priority 2011, dated 2018)

Test system: Caco-2 cells
Assay: Gene expression profiling of Caco-2 cells treated with compounds (Illumina HT-12 arrays, Volcano plots)
Assay type: cell-based, human

Stigmasterol Triethyleneglycol Oxyacetic Acid Prednisolone Ester [SE-41]
Interleukin-1, beta gene regulation (24 hours exposure, gene array): downregulated | upregulation of insulin induced gene 1 (24 hours exposure, gene profiling experiments): 1.5 fold | interleukin receptor and interleukins affected (gene array): affected

Stigmasterol Triethyleneglycol Prednisolone Succinate [SE-22]
interleukin receptor and interleukins affected (gene array): affected | similarity of gene profile to prednisone (gene array): more similar gene profiles to prednisone
